In paper doi:10.1101/2024.03.22.586364, “Development of quantitative high-throughput screening assays to identify, validate, and optimize small-molecule stabilizers of misfolded β-glucocerebrosidase with therapeutic potential for Gaucher disease and Parkinson’s disease” (bioRxiv, 2024):
Structures can show the parent of a compound that is named as a salt. Residues, ends and D or L forms follow the SMILES beside them. *: point of attachment. Cbz = O=C(OCc1ccccc1)*

What was measured:
HiBiT-GCase-L444P [1] = target: T1, HiBiT-GCase-L444P (Homo sapiens, UniProt P04062, L483P); settings: for effect on HiBiT-GCase-L444P levels (in words): H4 cells, 1536-well format
T1 sequence (P04062 40-536 L483P): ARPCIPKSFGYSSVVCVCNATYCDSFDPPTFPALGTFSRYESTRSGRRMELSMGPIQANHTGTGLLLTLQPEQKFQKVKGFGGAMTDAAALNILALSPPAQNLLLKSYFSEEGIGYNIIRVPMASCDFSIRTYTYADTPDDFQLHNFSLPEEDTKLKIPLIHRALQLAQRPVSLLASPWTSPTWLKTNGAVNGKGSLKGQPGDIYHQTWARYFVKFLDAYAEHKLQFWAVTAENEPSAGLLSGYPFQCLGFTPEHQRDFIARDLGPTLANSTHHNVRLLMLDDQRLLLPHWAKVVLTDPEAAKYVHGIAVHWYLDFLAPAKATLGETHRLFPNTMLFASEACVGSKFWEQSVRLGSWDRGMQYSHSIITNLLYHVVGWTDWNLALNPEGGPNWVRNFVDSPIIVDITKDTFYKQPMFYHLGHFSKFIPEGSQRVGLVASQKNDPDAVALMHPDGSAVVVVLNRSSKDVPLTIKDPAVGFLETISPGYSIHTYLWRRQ

HiBiT-GCase-L444P [2] = target: T1, HiBiT-GCase-L444P; assay: cell-based; settings: AC50 (uM), Table S1, confirmed follow-up hits; 24 h treatment; n = 3

AC50 (HiBiT-GCase-L444P [2]) [µM] | CC-v2 (qHTS curve class) (HiBiT-GCase-L444P [1]; Table S1, confirmed follow-up hits, 24 h treatment, n = 3) | Efficacy (HiBiT-GCase-L444P [1]; Table S1, follow-up screen, 24 h, relative to DMSO control, text quotes these values in %, 100% = doubling of GCase levels) | SMILES | effect on HiBiT-GCase-L444P levels (in words) (HiBiT-GCase-L444P [1]; 24 h treatment)
 |  |  | CC(C)C[C@@H](C=O)NC(=O)[C@H](CC(C)C)NC(=O)[C@H](CC(C)C)NC(=O)OCc1ccccc1 [MG-132] (Cbz-Leu-Leu-Leu-aldehyde) | selectively stabilized HiBiT-GCase-L444P with a dose-dependent response
 |  |  | Cc1cc(OCc2nnc(SC3CCCC3)n2-c2cccnc2)ccc1-c1ccc(S(C)(=O)=O)cc1 [NCGC00371131-03, NMS-873] | selectively stabilized HiBiT-GCase-L444P with a dose-dependent response
53 | 2.2 | 48 | CNCCCC12CCC(c3ccccc31)c1ccccc12 [NCGC00390084-01, Maprotiline hydrochloride] | 
